Where two headings read alike, the source gives them in different places.
Assays:
[1] = values from Bioanalytical Systems Inc. (BAS), platinum working electrode; cited from earlier work
[2] = Redox potentials of iron complexes by cyclic voltammetry; type: physicochemical; conditions: glassy carbon working electrode, 2.0 mM, pH 7.4

For Potassium ferricyanide (III), the E1/2 [1] is given as 272 mV, the “Ep^ox” value [1] is given as 306 mV and the “Ep^red” value [1] is given as 237 mV. The ΔEp [1] was 69 mV, the ΔEp [2] was 85 mV and the E1/2 ([2]; vs Ag/AgCl) was 240 mV. The “Ep^ox” value ([2]; vs Ag/AgCl) was 282 mV and the “Ep^red” value ([2]; vs Ag/AgCl) was 197 mV.

From US8097624B2, “Cycloalkyl derivatives of 3-hydroxy-4-pyridinones” (Apotex Inc., priority 2006, dated 2012)
